This is an account of results in patent publication US9388170B2, “Substituted aminoquinazolines useful as kinases inhibitors” (TELIGENE LTD., priority 2012, dated 2016).

In one assay the test system is A431. Put plainly: Cell proliferation assay (MTT), A431. The assay is classed as cell-based. The note with it: Homo sapiens, A-431, A431 cells, 72 hours. On the procedure: (§1) A Representative Number of Compounds were Assayed Against Different Cancer Cell Lines Such as A431, BT474, NCI—H1975, SK—OV-3, SK—Br-3 and A549 Using the Cell Proliferation Assays:
(§2) 1. 5×10^3 cells per well in 100 μl of medium were seeded in 96-well plate, here the medium contained 5% FBS
(§3) 2. 24 hours later, 100 μl fresh medium was added with various concentrations of compounds into each well, while the medium here was free of FBS.
(§4) 3. After the cells were treated with compounds for 72 hours, 20 μl MTT (5 mg/ml) was added into each well, and then the assay plate was incubated at 37° C. for 4 more hours.
(§5) 4. The assay plate was centrifuged at 800 g for 10 min. The medium was aspirated, 150 μl DMSO was added into each well. The plate was gently shaken for 10 min.
(§6) 5. The absorbance at 570 nm was measured on the plate reader.

In a further assay the test system is BT474. Put plainly: Cell proliferation assay (MTT), BT474. The note with it: Homo sapiens, BT-474, BT474 cells, 72 hours. Format: cell-based. On the procedure:
as §1, §2, §3, §4, §5, §6

`C#Cc1cccc(Nc2ncnc3cc(O[C@H]4CCOC4)c(NC(=O)/C=C/CN(CC)CC)cc23)c1` [Compound 20, (S,E)-4-(diethylamino)-N-(4-((3-ethynylphenyl)amino)-7-((tetrahydrofuran-3-yl)oxy)quinazolin-6-yl)but-2-enamide]: the IC50 (usually the concentration that inhibits the measured activity by half) in the assay with A431 is 1790 nM; in the assay on BT474, 6.8 nM.
